Data taken from publication PMC3849035 (MedChemComm, 2011).

Experiments:
MDCK cells = details: dog
HEL cells = details: human
HeLa cells = details: human
Vero cells = details: African green monkey

SMILES: NC(=O)c1ncn([C@@H]2O[C@H](CO)[C@@H](O)[C@H]2O)n1 [Ribavirin, reference compound]
- MCC (minimal cytotoxic concentration) (MDCK cells): >100 µM
- MCC (minimal cytotoxic concentration) (HEL cells): >250 µM
- MCC (minimal cytotoxic concentration) (HeLa cells): >250 µM
- MCC (minimal cytotoxic concentration) (Vero cells): >250 µM
